Results published in article PMC8124814.

How the values were obtained:
[1] = target: 5,6-carboxyfluorescein-labelled PARP2 (FAM-PARP2) (murine) (UniProt O88554); assay: other fluorescence titration; FAM-PARP2 (40 nM) premixed with gap-DNA (400 nM), titrated with the unlabelled partner; apparent
[2] = target: 5,6-carboxyfluorescein-labelled PARP2 (FAM-PARP2) (murine) (UniProt O88554); assay: other fluorescence titration; labelled protein fixed at 40 nM, titrated with the unlabelled partner; 50 mM Hepes pH 8.0, 100 mM NaCl, 5 mM DTT; four-parameter fit; EC50 are apparent equilibrium dissociation constants

“DNA polymerase β (Polβ), rat, unlabelled (from UniProt P06766 1-335) (enzyme)” showed an EC50 [1] of 0.106 µM and an EC50 [2] of 0.185 µM.
